Experiment: solubility in water or saline solution
Format: physicochemical
Conditions: for strontium ferrate water or saline solution

With strontium hydroxide the “solubility in water” value was “slightly soluble”.

From patent publication US8372441B2, “Materials and methods for preparation of alkaline earth ferrates from alkaline earth oxides, peroxides, and nitrates” (Biolife, LLC, priority 2007, dated 2013)
